Results reported in paper PMC7723054.
This is one part of the list.

B1: hsa-mir-4529 (structured_RNA)
RNA: GGGAACGUGGUCUAUUACACAACGCCCGGGUGUACGAAGUUUCAGCCAAUGAAGACAUGAAGACCCAAUGUCUUCAUUGGCUGAAGCUUCGUGCAC
B2: hsa-mir-5583-2 (structured_RNA)
RNA: GGGACAAGGACGGCAGAUAUAGAAUUGAGGUGUACGAAGUUUCAGCAUUCUGAUGAUCACCUAGCCAGAAUGCUGAAGCUUCGUGCAC
B3: hsa-mir-3135b (structured_RNA)
RNA: GGGAGGUUAGAGGUGAAGGUUGCGGUAAGGUGUACGAAGUUUCAGCGGUGCAGUCAGUCCUAGCUCGCUGAAGCUUCGUGCAC
B4: hsa-mir-1-2 (structured_RNA)
RNA: GGGAGCCUGUUGGUGGGAUCUAAAAUCUGGUGUACGAAGUUUCAGCCCCAUAUGAACAUACAAUGCUAUGGAGCUGAAGCUUCGUGCAC
B5: G4_(GGGU)8: (structured_RNA)
RNA: GGGAAAGACAAUAGCUUCCGUGGAGUAUGGUGUACGAAGUUUCAGCGGGUGGGUGGGUGGGUGGGUGGGUGGGUGGGUGCUGAAGCUUCGUGCAC
B6: hsa-mir-6833 (structured_RNA)
RNA: GGGAAGAGUGGCUUUGCCCGGAUAACUCGGUGUACGAAGUUUCAGCGAAAAAUCCCUGUUAACUUUCGCUGAAGCUUCGUGCAC
B7: hsa-mir-4424 (structured_RNA)
RNA: GGGAACAUCGGGCACAGCCUAAUACCCCGGUGUACGAAGUUUCAGCACUAAUUUUUCCACUAGUUAGUGCUGAAGCUUCGUGCAC
B8: hsa-mir-3160-2 (structured_RNA)
RNA: GGGAACAGUUUACGGGUCUUACGUCACAGGUGUACGAAGUUUCAGCCUCUCCUGACCAGCUGAGCUGGAGGAGAGGCUGAAGCUUCGUGCAC
B9: hsa-mir-3656 (structured_RNA)
RNA: GGGAAUCACGUAAUAAAAGGUAGGGCGCGGUGUACGAAGUUUCAGCCGAGGUGGGCUAGGCUCGGGCCCGUGGCGGCUGAAGCUUCGUGCAC
B10: hsa-mir-6715a (structured_RNA)
RNA: GGGACUGUUAGCGUUUAUUCACACUUGGGGUGUACGAAGUUUCAGCUGAGCAUUUUUACUGAAUUGCCAGCUGAAGCUUCGUGCAC
B11: hsa-mir-572 (structured_RNA)
RNA: GGGAGAAAGGCCUACGCGGUGAUCUACUGGUGUACGAAGUUUCAGCGGAAGGGCGCCUGUGCUUCGUCCGCUGAAGCUUCGUGCAC
B12: hsa-mir-1827 (structured_RNA)
RNA: GGGAUAAAUACCGGGCGGCGUGAUUCUGGGUGUACGAAGUUUCAGCUUCAGCCUAAAGCAAUGAGAAGCCUCUGAAAGGCUGAGCUGAAGCUUCGUGCAC

Target: U1A (Homo sapiens, UniProt P09012)
Assay: FOREST: bead pull-down of RNA structure library v1, barcode microarray; U1A/LIN28A: 20 mM HEPES pH 7.5, 80 mM KCl, 20 mM NaCl, 10% glycerol, 2 mM DTT, 0.1 ug/uL BSA, 4 C; BG4/CIRBP/DHX36: 10 mM Tris-HCl pH 7.5, 100 mM KCl (or LiCl),; high values mean tight binding

Row | Binder | binding signal [z-score]
1 | B1 | 0.187
2 | B2 | 0.187
3 | B3 | 0.187
4 | B4 | 0.186
5 | B5 | 1.84
6 | B6 | 0.185
7 | B7 | 0.183
8 | B8 | 0.183
9 | B9 | 0.182
10 | B10 | 0.181
11 | B11 | 0.18
12 | B12 | 0.178

Target: T1, LIN28A (human?, UniProt Q9H9Z2 1-209)
T1 sequence: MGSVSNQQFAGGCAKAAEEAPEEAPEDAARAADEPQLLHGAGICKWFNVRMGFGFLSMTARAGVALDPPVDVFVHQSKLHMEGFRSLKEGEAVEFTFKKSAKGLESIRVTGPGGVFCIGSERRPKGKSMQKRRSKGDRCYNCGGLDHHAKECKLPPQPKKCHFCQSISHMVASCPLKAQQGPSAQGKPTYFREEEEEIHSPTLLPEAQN
Assay: as above

Row | Binder | binding signal [z-score]
13 | B1 | -0.719
14 | B2 | 0.543
15 | B3 | -0.603
16 | B4 | 0.214
17 | B5 | 0.459
18 | B6 | -1.42
19 | B7 | -0.739
20 | B8 | -0.534
21 | B9 | 1.63
22 | B10 | 0.0952
23 | B11 | -0.0222
24 | B12 | 0.764

Target: T2, CIRBP (Homo sapiens, UniProt Q14011 1-172)
T2 sequence: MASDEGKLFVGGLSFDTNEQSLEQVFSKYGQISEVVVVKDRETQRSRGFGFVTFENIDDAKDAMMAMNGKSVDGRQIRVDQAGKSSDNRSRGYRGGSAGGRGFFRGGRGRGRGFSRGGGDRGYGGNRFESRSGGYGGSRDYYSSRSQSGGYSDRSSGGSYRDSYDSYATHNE
Assay: as above

Row | Binder | binding signal [z-score]
25 | B1 | -0.774
26 | B2 | 0.657
27 | B3 | -1.25
28 | B4 | 0.0347
29 | B5 | 4.06
30 | B6 | -0.18
31 | B7 | 0.266
32 | B8 | 0.146
33 | B9 | 0.724
34 | B10 | -0.641
35 | B11 | -0.303
36 | B12 | 0.103

Target: T3, DHX36 (Homo sapiens, UniProt Q9H2U1 1-1008)
T3 sequence: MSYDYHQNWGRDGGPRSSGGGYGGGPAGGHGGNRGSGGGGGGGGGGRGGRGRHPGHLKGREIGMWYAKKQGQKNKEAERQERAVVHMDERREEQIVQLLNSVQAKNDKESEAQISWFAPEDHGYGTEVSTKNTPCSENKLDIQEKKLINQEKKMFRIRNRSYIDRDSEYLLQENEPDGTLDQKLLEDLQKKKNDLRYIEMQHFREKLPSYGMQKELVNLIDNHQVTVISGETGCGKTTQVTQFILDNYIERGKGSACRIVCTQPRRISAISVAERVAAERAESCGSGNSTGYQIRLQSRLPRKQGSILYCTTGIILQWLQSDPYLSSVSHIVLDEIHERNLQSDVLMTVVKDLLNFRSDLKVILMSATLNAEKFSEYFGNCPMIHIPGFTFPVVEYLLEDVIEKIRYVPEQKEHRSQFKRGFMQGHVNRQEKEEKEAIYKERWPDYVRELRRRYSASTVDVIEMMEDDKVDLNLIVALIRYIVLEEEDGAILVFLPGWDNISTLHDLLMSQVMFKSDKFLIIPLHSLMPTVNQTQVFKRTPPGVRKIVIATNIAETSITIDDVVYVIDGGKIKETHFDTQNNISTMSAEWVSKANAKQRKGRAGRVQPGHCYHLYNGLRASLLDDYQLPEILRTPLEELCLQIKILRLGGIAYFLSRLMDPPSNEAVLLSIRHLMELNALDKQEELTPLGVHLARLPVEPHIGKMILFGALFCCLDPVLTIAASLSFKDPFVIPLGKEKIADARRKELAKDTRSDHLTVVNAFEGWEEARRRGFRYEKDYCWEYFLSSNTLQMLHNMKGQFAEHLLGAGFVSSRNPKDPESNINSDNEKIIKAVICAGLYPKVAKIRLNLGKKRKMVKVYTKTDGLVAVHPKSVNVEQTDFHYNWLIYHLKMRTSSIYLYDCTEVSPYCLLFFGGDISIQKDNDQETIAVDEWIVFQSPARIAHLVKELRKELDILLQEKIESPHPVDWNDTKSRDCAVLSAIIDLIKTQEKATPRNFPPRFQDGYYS
Assay: as above

Row | Binder | binding signal [z-score]
37 | B1 | -0.412
38 | B2 | -0.443
39 | B3 | -0.697
40 | B4 | 0.211
41 | B5 | 7.55
42 | B6 | -0.765
43 | B7 | -0.294
44 | B8 | -0.109
45 | B9 | 0.262
46 | B10 | 0.00994
47 | B11 | -0.893
48 | B12 | 0.652
